Measured values reported in US20250277059A1, “ANTIBODY USED TO TREAT CORONAVIRUS INFECTION” (priority 2022, published 2025).

Chains of the proteins cited; added tags and fusions are not shown.
UniProt O15393, whole entry W306A: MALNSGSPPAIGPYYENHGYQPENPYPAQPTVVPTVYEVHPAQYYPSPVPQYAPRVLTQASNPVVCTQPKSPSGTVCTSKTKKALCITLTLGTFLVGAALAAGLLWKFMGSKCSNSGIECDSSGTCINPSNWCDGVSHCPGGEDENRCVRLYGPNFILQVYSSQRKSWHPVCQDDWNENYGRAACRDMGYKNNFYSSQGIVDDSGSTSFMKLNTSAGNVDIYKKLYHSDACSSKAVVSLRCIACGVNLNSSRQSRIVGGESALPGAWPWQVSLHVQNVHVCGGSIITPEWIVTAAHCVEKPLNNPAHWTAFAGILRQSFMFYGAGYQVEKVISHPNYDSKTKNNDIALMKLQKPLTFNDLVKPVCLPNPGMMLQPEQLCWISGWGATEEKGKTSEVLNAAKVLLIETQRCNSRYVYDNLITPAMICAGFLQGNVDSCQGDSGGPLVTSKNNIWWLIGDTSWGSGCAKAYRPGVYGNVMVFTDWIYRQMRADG

Key:
[1] = biological target: TMPRSS2 chimera (human/316 to 321 hamster) (human; hamster, UniProt O15393 1-492); test: flow cytometry on COS7 cells expressing the variant (FIG. 7D)
[2] = biological target: T1, W306A variant of human TMPRSS2 (human, UniProt O15393 1-492); test: flow cytometry, COS7 transfectant
T1 construct: also called human TMPRSS2 W306A

[3] = biological target: T2, TMPRSS2 chimera (human/292 to 309 cat) (human; cat, UniProt O15393 1-492); test: flow cytometry, COS7 transfectant
[4] = biological target: T1, W306A variant of human TMPRSS2; test: flow cytometry on COS7 cells expressing the variant (FIG. 7C)
[5] = biological target: T2, TMPRSS2 chimera (human/292 to 309 cat); test: flow cytometry on COS7 cells expressing the variant (FIG. 7A)

B1: 2020_12 antibody (antibody, V domains shown)
VH: QVQLQQPGAELAKPGASVKLSCKASGYTFTSYWMHWVKQRPGQGLEWIGLIPPNSGSSNYNEKFKSKATLTVDKSSRTAYMQLSSLTSEDSAVYYCARWDYGSSYGYFDVWGTGTTVTVSS
VL: DIVLTQSPASLAVSLGQRATISCRASESVSTSGYSYMHWYQQKPGQPPKLLIYLASNLESGVPVRFSGSGSGTDFTLNIHPVEEEDAATYYCQHSRELPPTFGAGTKLELK
Q: Does B1 bind [1]?
A: Result: no binding

B2: 1864_10 antibody (antibody, V domains shown)
VH: QVQLQQSGPALVKPGASLKISCEASGYTFTYYSINWVKQRPGQGLEWIGWIFPGSGSTYYNEKFKGKATLTIDKSSSTAYMLLSSLTSEDSAVYFCARSDYGSAYGYFDVWGTGTTVTVSS
VL: DIVLTQSPASLAVSLGQRATISCRASKSVSTSGYSYMHWYQQKPGQPPKLLIYLASNLESGVPARFSGSGSGTDFTLNIHPVEEEDAATYYCQHSRDLPLTFGAGTKLELK
Q: Does B2 bind [1]?
A: Result: no binding

B3: 2114_16 antibody (antibody, V domains shown)
VH: EVQLQQSGPELVKPGASVKISCKASGYTFTDYYMNWVKRRHGKSLEWIGNINPNNGGTSYNQKFKGKATLTVDKSSSTAYMELRSLTSEDSVVYYCAREGDLFPFAYWGQGTLVTVSA
VL: QAVVTQESALTTSPGETVTLTCRSSIGTVTTSNFANWVQEKPDHLFTGLIGASNNRAPGVPARFSGSLIGDKAALTITGAQTEDEAIYFCALWFSNHWVFGGGTKLTVL
notes: also called 2114 antibody
Q: Does B3 bind [2]?
A: Result: no binding

Q: Does B3 bind [3]?
A: Result: no binding

B4: 1831_15 antibody (antibody, V domains shown)
VH: QVQLQQPGAELVKPGASVKLSCKASGYSFTTYWMHWVRQRPGQGLEWIGIIHPNSGTTNYNEKFKSKASLTVDKSSSTAYMQLSSLTSEDSAVYYCARLLWDYFDYWGQGTTLTVSS
VL: DIVMSQSPSSLAVSAGEKVTMSCKSSQSLLNSRTRKNFLAWYQQKPGQSPKLLIYWASTRESGVPDRFTGSGSGTDFTLTISSVQAEDLAVYYCKQSYNLYTFGGGTKLEIK
Q: Does B4 bind [4]?
A: Result: no binding

Q: Does B4 bind [5]?
A: Result: no binding
